The test concerns D(2) dopamine receptor (Sus scrofa). Briefly: Proportion of high affinity state of Dopamine receptor D2 measured by compound ability to displace [3H]spiperone from porcine anterior pituitary membranes.

Compound `CN1CCc2cc(F)cc3c2[C@H]1Cc1ccc(O)c(O)c1-3` displayed a D-2 of 68%.

The values are drawn from ChEMBL document CHEMBL1124481, “2-Haloaporphines as potent dopamine agonists” (J Med Chem, 1989).
